For assay [1], the species on record is Rattus norvegicus. The assay can be described thus: Inhibition of protein tyrosine phosphatase (PTP) activity in rat liver endosome insulin receptor (IR) dephosphorylation assay at 0.1 mM.
Assay [2] is filed under the species Rattus norvegicus. The assay can be described thus: Inhibition of protein tyrosine phosphatase (PTP) activity in rat liver endosome insulin receptor (IR) dephosphorylation assay at 1 mM.

With `O=C(O)c1ccc(I(=O)=O)cc1`, the inhibition (commonly the drop in the measured response relative to a control, in per cent) worked out at 36% in the assay filed under Rattus norvegicus [1] and 69% in the assay filed under Rattus norvegicus [2].
